Test results: ChEMBL document CHEMBL1152285, “Studies of the metabolic stability in cells of 5-(trifluoroacetyl)thiophene-2-carboxamides and identification of more stable class II histone deacetylase (HDAC) inhibitors” (Bioorg Med Chem Lett, 2008)
Active and inactive are the calls of the source. No cut-off for these calls is given here.

Amino acid sequences for entries named in this document (tags omitted). A change or cut given only in a name is not applied to a line headed by its entry.
UniProt P56524: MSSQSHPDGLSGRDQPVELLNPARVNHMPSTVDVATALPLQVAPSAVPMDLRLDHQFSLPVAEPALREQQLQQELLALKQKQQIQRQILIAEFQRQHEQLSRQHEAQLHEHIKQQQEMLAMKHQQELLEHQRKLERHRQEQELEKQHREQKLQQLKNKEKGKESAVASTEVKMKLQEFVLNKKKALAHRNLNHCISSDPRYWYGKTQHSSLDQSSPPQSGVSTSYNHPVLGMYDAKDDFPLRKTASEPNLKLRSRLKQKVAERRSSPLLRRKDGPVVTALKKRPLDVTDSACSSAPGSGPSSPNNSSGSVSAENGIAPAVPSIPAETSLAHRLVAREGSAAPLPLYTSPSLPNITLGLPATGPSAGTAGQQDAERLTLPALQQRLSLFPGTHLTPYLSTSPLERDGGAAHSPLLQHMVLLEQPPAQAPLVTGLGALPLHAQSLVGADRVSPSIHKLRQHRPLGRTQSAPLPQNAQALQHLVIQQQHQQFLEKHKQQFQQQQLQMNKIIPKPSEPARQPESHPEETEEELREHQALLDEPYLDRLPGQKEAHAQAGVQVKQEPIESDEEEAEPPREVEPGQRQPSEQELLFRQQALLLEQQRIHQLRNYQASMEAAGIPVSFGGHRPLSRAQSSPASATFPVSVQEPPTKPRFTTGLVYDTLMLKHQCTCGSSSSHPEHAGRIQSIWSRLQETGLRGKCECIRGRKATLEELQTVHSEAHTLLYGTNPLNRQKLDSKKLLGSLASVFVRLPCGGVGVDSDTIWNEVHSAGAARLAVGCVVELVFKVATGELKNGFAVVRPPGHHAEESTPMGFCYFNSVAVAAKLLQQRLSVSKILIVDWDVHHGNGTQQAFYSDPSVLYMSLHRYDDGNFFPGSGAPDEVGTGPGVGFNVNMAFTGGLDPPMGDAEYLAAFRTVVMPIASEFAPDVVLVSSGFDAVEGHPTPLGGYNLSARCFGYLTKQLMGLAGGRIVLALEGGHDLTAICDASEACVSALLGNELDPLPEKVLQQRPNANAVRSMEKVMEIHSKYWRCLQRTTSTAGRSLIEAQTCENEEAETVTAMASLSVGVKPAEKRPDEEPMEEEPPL

Tests used:
[1] = biological target: Histone deacetylase 4 (Homo sapiens) (UniProt P56524); assay: Inhibition of histidine-tagged HDAC4 wild type catalytic domain purified from Escherichia coli up to 10 uM after 10 mins
[2] = Toxicity in human […] by MTS assay

Structure (SMILES) | Activity [1] | Activity [2]
O=C(c1ccc(C(=O)C(F)(F)F)[nH]1)N1CCc2ccccc21 | inactive | 
CC(NC(=O)c1ccc(C(=O)C(F)(F)F)s1)c1cccc2ccccc12 (stereo unspecified) |  | Non-toxic
COc1cccc(N2CCN(C(=O)c3ccc(C(=O)C(F)(F)F)s3)CC2)c1 |  | Non-toxic
O=C(c1ccc(C(=O)C(F)(F)F)s1)N1CCC(c2nnc(-c3ccccc3)o2)CC1 |  | Non-toxic
CC(NC(=O)c1ccc(C(=O)C(F)(F)F)s1)c1ccncc1 (stereo unspecified) |  | Non-toxic
O=C(NCC1CCCCC1)c1ccc(C(=O)C(F)(F)F)cn1 | inactive | 
